Reference: US20050159333A1, “Methods of modulating smooth muscle contractility” (priority 2002, published 2005)

System: isolated male rat urinary bladder

- EC50: 6.5 ± 3.9 nM
SMILES: CSCC[C@H](NC(=O)[C@H](CC(C)C)NC(=O)CNC(=O)[C@@H](NC(=O)[C@H](Cc1ccccc1)NC(=O)[C@H](CO)NC(=O)[C@H](CC(=O)O)NC(=O)[C@@H](NC(=O)[C@H](CCCCN)NC(=O)[C@@H](N)Cc1c[nH]cn1)[C@@H](C)O)C(C)C)C(N)=O [NKA, Neurokinin A]
